For data set [1] the following is noted: known compounds, background; cited from earlier work.
Data set [2] is described as follows: absorption of the pH indicator betaines.
The nature of data set [3]: pK value of the pH indicator betaines.

Structures are written as SMILES. Read-outs that look alike come from different tables or passages of the source.

In the case of `CCOC(=O)C(c1ccc([N+](=O)[O-])cc1[N+](=O)[O-])c1ccc([N+](=O)[O-])cc1[N+](=O)[O-]`, in data set [1], the absorption result is “usable absorption” and the “solubility or pK value” is recorded as “too low a solubility or too high a pK value”.
As to `C[n+]1ccccc1[C-](c1ccc([N+](=O)[O-])cc1[N+](=O)[O-])c1ccc([N+](=O)[O-])cc1[N+](=O)[O-]`, the absorption in data set [2] was 400-800 nm. In addition, the pK value in data set [3] amounted to 9.
On to `C[n+]1ccc([C-](c2ccc([N+](=O)[O-])cc2[N+](=O)[O-])c2ccc([N+](=O)[O-])cc2[N+](=O)[O-])cc1`, for which, in data set [2], the absorption is listed as 400-810 nm. Besides, the pK value in data set [3] turned out to be 6.5.
Taken in the same sequence, the figures for `C[n+]1cccc([C-](c2ccc([N+](=O)[O-])cc2[N+](=O)[O-])c2ccc([N+](=O)[O-])cc2[N+](=O)[O-])c1` were 400-900 nm and 10.5.
